# Biological target: 5-hydroxytryptamine receptor 1A (Homo sapiens, UniProt P08908)
# By UniProt entry, the sequences of proteins in these tests, tags left out.
# UniProt P08908, whole entry: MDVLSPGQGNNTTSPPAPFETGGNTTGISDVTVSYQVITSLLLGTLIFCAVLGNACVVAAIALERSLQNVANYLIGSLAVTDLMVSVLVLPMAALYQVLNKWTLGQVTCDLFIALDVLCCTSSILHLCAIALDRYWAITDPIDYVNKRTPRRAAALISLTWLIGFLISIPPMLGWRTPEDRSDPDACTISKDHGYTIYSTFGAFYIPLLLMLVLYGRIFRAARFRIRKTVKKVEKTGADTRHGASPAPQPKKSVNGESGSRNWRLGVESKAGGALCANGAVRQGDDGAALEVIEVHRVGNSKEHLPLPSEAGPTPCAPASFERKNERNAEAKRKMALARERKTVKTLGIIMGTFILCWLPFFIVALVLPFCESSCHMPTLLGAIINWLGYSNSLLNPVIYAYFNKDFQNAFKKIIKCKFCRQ
# Experiment: Agonist activity at 5HT1A receptor by GTPgammaS binding assay
# Format: functional
smiles,measurement,value
Fc1cccc(Cl)c1Oc1cccc(F)c1O[C@@H]1CCNC1,EC50,77 nM
